Tests used:
[1] = system: sorafenib-resistant liver cancer cell line Huh7-SR; details: sorafenib 10 μM and DN200434 12 μM, 24 hours, FIG. 3A
[2] = system: sorafenib-resistant liver cancer cell line SK-Hep-R; details: sorafenib 10 μM and DN200434 12 μM, 24 hours, FIG. 3B

`CC(C)N1CCN(c2ccc(/C(=C(/CCCO)c3ccccc3)c3ccc(O)cc3)cc2)CC1` [DN434, (E)-5-(4-hydroxyphenyl)-5-(4-(4-isopropylpiperazin-1-yl)phenyl)-4-phenylpent-4-en-1-ol] was tested, and the ROS [1] was “increase in ROS” and the ROS [2] was “increase in ROS”.

— patent publication US20230390279A1, “COMPOSITION AND METHOD FOR TREATING CANCER” (NOVMETAPHARMA CO., LTD., priority 2022, published 2023)
